Chains of the proteins cited; added tags and fusions are not shown.
UniProt P61073, whole entry: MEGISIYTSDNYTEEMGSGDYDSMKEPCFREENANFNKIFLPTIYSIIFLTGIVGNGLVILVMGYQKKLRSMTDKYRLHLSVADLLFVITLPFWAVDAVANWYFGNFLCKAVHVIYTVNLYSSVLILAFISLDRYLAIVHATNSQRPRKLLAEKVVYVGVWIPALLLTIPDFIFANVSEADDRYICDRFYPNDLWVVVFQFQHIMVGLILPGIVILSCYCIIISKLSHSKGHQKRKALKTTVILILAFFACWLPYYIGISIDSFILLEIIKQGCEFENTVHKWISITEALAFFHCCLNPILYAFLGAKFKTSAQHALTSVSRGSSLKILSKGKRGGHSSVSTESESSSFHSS

In patent US9045563B2, “CXC chemokine receptor 4 (CXCR4) antagonistic polypeptide” (priority 2007, dated 2015):

Columns and labels:
CXCR4 [1] = biological target: T1, CXCR4 (Homo sapiens, UniProt P61073); assay: Fluorescent binding assay on whole living cells, CXCL12-TR competition on HEK293 EGFP-hCXCR4; parameters: expressed in transfected cells; details: CXCR4 expressing HEK293 cells
Description: FIG. 17. CXCR4 antagonistic activities of ALB derivatives. […] CXCR4 or CCR5 expressing HEK293 cells were treated with CXCR4 agonist CXCL12 (10 nM) or CCR5 agonist CCL5 (20 nM), respectively, in the absence (no ALB) or presence of indicated ALB derivatives (50 μM). Calcium responses were recorded as described. Data shown are mean values±standard deviation derived from duplicates relative to peak calcium responses after treatment with agonists only (100%). […] CXCR4 expressing HEK293 cells were treated with Texas Red labeled CXCL12 (CXCL12-Tr) in the presence or absence of ALB peptides. Real-time fluorescence monitoring of ligand-receptor interactions was carried out as described.

CXCR4 [2] = biological target: T1, CXCR4; assay: Ca2+ mobilization in CXCR4 expressing HEK293 cells (indo-1); type: cell-based; parameters: expressed in transfected cells; details: 50 μM derivative, 10 nM CXCL12
Description: Ca^2+ responses were recorded.
FIG. 17. CXCR4 antagonistic activities of ALB derivatives. […] CXCR4 or CCR5 expressing HEK293 cells were treated with CXCR4 agonist CXCL12 (10 nM) or CCR5 agonist CCL5 (20 nM), respectively, in the absence (no ALB) or presence of indicated ALB derivatives (50 μM). Calcium responses were recorded as described. Data shown are mean values±standard deviation derived from duplicates relative to peak calcium responses after treatment with agonists only (100%). […] CXCR4 expressing HEK293 cells were treated with Texas Red labeled CXCL12 (CXCL12-Tr) in the presence or absence of ALB peptides. Real-time fluorescence monitoring of ligand-receptor interactions was carried out as described. Shown are bound CXCL12-Tr levels in the presence of ALB peptides relative to CXCL12-Tr only treated cells (100% bound). Values were derived from a duplicate experiment.

CC(C)C[C@H](NC(=O)[C@@H](NC(=O)[C@@H]1CCCN1C(=O)[C@@H](NC(=O)[C@H](CO)NC(=O)[C@@H](NC(=O)[C@H](CCC(N)=O)NC(=O)[C@@H]1CCCN1C(=O)[C@@H](NC(=O)[C@H](CCCCN)NC(=O)[C@H](CCCCN)NC(=O)[C@@H](NC(=O)[C@H](Cc1ccc(O)cc1)NC(=O)[C@H](CCCNC(=N)N)NC(=O)[C@@H](N)C(C)C)[C@@H](C)O)C(C)C)C(C)C)[C@@H](C)O)[C@@H](C)O)C(=O)O [ALB409-423, VRYTKKVPQVSTPTL]
inhibition of binding of CXCL12-Tr to the CXCR4 receptor by ALB derivatives (CXCR4 [1]): did not inhibit | inhibition of CXCL12 mediated Ca2+ responses by ALB derivatives (CXCR4 [2]): did not inhibit
